Test results: patent US20200196599A1 (priority 2018, published 2020)
Like-named read-outs stand apart in the source and are kept apart here.

Protein sequences, listed by entry. Tags and fused reporters are not part of them. Residues count along the entry.
UniProt G4MVD0, 1-632: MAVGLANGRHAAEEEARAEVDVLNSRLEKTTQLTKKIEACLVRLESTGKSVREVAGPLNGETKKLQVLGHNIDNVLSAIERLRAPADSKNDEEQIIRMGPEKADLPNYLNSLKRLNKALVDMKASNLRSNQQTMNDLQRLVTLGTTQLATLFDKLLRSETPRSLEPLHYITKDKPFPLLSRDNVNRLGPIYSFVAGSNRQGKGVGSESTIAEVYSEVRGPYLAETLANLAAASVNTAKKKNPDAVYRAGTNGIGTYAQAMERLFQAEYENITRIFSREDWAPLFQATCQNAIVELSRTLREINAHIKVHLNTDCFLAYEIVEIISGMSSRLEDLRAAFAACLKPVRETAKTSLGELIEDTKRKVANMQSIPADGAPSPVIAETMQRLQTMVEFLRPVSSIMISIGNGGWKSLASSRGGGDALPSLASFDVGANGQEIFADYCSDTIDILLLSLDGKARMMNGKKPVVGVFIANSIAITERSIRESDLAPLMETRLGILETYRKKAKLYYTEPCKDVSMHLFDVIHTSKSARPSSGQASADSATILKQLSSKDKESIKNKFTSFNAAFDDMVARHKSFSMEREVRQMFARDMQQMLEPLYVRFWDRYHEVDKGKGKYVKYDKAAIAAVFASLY

Experiments:
[1] = tested on: M. oryzae; format: cell-based, Magnaporthe oryzae; conditions: CM medium, 12 days
[2] = tested on: B. cinerea; format: cell-based, Botrytis cinerea
[3] = target: GFP-MoEXO70 (Pyricularia oryzae, UniProt G4MVD0); assay: biochemical; format: binding, M. oryzae

Row | SMILES | concentration causing significant reduction in growth of M. oryzae [1] | concentration that significantly inhibited the growth rate of B. cinerea [2] | Kd [3] | Kd ([3]; read-out: calculated Kd with GFP-MoEXO70 (MST))
1 | COc1cc(/C=N/NC(=O)c2cccc(F)c2)cc(I)c1O [ES2, endosidin2, reference compound] | ≥ 20 µM | ≥ 40 µM | 108 ± 49 µM | 
2 | O=C(N/N=C/c1cc(I)c(O)c(I)c1)c1cccc(F)c1 [analog 14] |  |  |  | 37 ± 18 µM
